Columns and labels:
[1] = tested on: MMP-3 levels in supernatant of chondrocytes stimulated with IL1-β; assay: Chondrocyte protection assay compound screening (MMP-3 LANCE Ultra); details: IL1-β 10 ng/mL overnight, 11-point curves from 3 μM to 0.05 nM
CLK2 kinase = CLK2 kinase (Homo sapiens, UniProt P49760); assay: CLK2 kinase activity assay (Z-lyte FRET); type: biochemical; details: Z-lyte Ser/Thr 6 peptide, 60 μM ATP, 1 h at room temperature;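 note: FRET read-out as coumarin to fluorescein emission ratio, unphosphorylated peptide as 0% and phosphorylated peptide as 100% controls, duplicate reactions, non-linear regression fit of dose-response curves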

Sequences of proteins named here, by UniProt entry; tags and fusion partners are left off.
UniProt P49760, whole entry: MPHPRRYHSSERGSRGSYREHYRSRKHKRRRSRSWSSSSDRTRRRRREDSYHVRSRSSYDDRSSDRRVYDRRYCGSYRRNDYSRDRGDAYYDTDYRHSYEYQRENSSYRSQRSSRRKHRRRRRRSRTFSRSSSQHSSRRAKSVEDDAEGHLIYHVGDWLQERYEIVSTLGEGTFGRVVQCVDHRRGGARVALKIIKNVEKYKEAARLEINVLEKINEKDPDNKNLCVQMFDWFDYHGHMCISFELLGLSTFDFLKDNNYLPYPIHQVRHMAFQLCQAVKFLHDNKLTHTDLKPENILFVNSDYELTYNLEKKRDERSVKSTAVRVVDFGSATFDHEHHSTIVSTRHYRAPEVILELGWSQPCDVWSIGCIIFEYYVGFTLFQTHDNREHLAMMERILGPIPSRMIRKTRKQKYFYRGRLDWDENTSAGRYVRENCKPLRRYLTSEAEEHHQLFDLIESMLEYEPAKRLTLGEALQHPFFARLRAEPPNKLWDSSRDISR

- EC50 (CLK2 kinase): 1 nM
SMILES: CN1CCN(c2ccc(NC(=O)c3n[nH]c4ccc(-c5cncc(NC(=O)c6c(F)cccc6F)c5)cc34)cn2)CC1
- EC50 [1]: ≥ 3000 nM
- Maximum % Inhibition [1]: 54.9%
